# In patent US5723606A, “Condensed benzazepine derivative and pharmaceutical composition thereof” (priority 1993, dated 1998):
# Amino acid sequences for entries named in this document (tags omitted). Residues count along the entry.
# UniProt G1TA00, 78-446: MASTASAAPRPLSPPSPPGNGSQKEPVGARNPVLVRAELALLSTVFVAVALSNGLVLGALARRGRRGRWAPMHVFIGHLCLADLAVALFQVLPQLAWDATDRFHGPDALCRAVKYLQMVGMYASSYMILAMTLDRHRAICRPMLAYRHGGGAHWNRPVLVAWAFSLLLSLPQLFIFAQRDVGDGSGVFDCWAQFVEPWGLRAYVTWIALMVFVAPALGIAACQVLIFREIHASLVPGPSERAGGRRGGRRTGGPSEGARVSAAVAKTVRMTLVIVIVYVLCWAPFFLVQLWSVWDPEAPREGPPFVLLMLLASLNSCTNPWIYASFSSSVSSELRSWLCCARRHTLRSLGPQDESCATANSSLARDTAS
# Biological target: arginine vasopressin V2 receptor (Oryctolagus cuniculus, UniProt G1TA00)
# Assay: V2 receptor binding assay
# Conditions: rabbit renal medulla membrane, [3H]-Arg-vasopressin 2 nM
structure (smiles),measurement,value
"CC(=O)NCCCOc1ccc(C(=O)N2CCC(N3C(=O)CCc4ccccc43)CC2)cc1 [(2), reference compound]",Binding activity on arginine vasopressin V2 receptor (pki),4.29
